The values below come from patent US20180338955A1, “METHODS FOR REGULATION AND TREATMENT OF GLIOMA CELL MIGRATION AND GLIOBLASTOMA” (priority 2015, published 2018).

Protein sequences, listed by entry. Tags and fused reporters are not part of them.
UniProt P06239, whole entry, species assumed: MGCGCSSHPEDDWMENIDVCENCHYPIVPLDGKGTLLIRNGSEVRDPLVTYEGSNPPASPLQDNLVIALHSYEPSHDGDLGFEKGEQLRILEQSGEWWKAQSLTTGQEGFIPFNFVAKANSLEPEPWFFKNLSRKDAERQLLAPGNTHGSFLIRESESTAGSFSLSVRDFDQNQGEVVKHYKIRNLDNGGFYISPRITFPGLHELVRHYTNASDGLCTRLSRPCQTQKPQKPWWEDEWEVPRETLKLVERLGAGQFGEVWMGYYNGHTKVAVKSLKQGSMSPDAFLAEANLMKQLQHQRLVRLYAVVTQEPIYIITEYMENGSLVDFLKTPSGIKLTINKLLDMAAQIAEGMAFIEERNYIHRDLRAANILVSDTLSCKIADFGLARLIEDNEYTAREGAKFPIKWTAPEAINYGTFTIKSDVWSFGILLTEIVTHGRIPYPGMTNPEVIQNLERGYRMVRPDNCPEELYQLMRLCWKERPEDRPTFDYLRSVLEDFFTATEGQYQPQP

Structures are written as SMILES.

One assay concerns the target Lck (Homo sapiens, UniProt P06239). Particulars: cited from earlier work.
A further assay concerns human GSCs. Put plainly: xCELLigence impedance assay of cell spreading/migration. The class given is cell-based. The following applies: 500 nM, after 10 hours, versus DMSO. Here is the method: The xCELLigence system was used to perform cell migration assays on the RTCA DP instrument. Electrical impedance due to cell migration is represented as cell index. GBM cells were seeded on fibronectin coated wells of the RTCA CIM-plate 16 (ACEA Biosciences) and allowed to attach and spread for 1 hour at room temperature. After 1 hour, wells were treated with DMSO vehicle or 500 nM Lck inhibitor. As cells migrated towards the lower chamber containing 10% FBS with DMSO vehicle or 500 nM Lck inhbitor, measurements were captured every 5 minutes. Cell index data was plotted overtime and the slope between 2 and 6 hours was calculated.

As for `COc1cc(-c2nn([C@H]3CC[C@H](N4CCN(C(C)=O)CC4)CC3)c3ncnc(N)c23)ccc1NC(=O)c1cc2ccccc2n1C` [Lck-I, A770041], the “concentration at which the inhibitor specifically binds to the Lck active site” value at Lck is listed as “nanomolar concentrations”. For the same compound, the cell index entry with human GSCs is “significantly decreased”.
